For experiment [1], the system named is Lewis lung carcinoma. As to the kind of experiment: LLC Lewis tumor model, prophylactic administration. The conditions noted are these: prophylactic administration one week, continued after inoculation.
Experiment [2] has as its system Lewis lung carcinoma. The conditions noted are these: 200 mg/kg via gavage, two weeks, post-inoculation.

As to `CN1CCN(Cc2ccc3nc4n(c(=O)c3c2)-c2ccc(F)cc2C4=O)CC1` [Embodiment Example 4], in the experiment on Lewis lung carcinoma [1], the “Lewis lung carcinoma tumor growth in vivo” value is recorded as “significantly inhibited”. Besides, the “in vivo Lewis lung carcinoma tumor growth compared to the control group” value in the experiment with Lewis lung carcinoma [2] is “significant inhibition”.

The values are drawn from patent US10059712B2, “N-benzyl tryptanthrin derivative, and preparation method and application thereof” (priority 2013, dated 2018).
